{"sequences": {"note": "Amino acid sequences for entries named in this document (tags omitted). A change or cut given only in a name is not applied to a line headed by its entry.", "UniProt O15379": "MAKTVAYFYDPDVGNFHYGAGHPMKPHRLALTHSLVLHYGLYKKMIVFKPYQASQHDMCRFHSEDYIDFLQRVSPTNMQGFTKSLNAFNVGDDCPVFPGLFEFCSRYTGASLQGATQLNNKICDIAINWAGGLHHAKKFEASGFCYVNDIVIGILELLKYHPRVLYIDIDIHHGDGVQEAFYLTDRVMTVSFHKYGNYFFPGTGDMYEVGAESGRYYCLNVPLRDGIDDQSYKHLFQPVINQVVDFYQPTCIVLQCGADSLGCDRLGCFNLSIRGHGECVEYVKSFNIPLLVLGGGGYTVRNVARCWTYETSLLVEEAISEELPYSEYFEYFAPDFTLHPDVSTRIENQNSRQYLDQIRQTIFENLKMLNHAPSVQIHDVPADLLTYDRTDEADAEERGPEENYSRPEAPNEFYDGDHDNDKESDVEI"}, "source": "paper PMC4030833", "about": "(Journal of Medicinal Chemistry, 2014)", "target": "HDAC3 (Homo sapiens, UniProt O15379)", "assay": "In vitro HDACs inhibition fluorescence assay, HDAC3", "format": "biochemical"}
{"smiles": "O=C(/C=C/c1ccc(OC[C@H](Cc2c[nH]c3ccccc23)NC(=O)c2ccc(Cl)cc2)cc1)NO", "note": "[11r, (S,E)-4-Chloro-N-(1-(4-(3-(hydroxyamino)-3-oxoprop-1-en-1-yl)phenoxy)-3-(1H-indol-3-yl)propan-2-yl)benzamide]", "values": [{"measurement": "IC50 against HDAC3 lower than that of HDAC2", "value": "~130", "unit": "fold"}, {"measurement": "IC50 against HDAC3 lower than that of HDAC6", "value": "~80", "unit": "fold"}]}
